From paper PMC9001978, “Determining the Effects of Differential Expression of GRKs and β-arrestins on CLR-RAMP Agonist Bias” (Frontiers in Physiology, 2022)

Sequences of proteins named here, by UniProt entry; tags and fusion partners are left off. Residues count along the entry.
UniProt O60895, 43-175: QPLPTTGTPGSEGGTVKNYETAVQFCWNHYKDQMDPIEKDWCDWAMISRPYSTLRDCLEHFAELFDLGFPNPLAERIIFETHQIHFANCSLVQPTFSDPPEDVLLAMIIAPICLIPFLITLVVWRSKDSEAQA
UniProt Q16602, 23-461: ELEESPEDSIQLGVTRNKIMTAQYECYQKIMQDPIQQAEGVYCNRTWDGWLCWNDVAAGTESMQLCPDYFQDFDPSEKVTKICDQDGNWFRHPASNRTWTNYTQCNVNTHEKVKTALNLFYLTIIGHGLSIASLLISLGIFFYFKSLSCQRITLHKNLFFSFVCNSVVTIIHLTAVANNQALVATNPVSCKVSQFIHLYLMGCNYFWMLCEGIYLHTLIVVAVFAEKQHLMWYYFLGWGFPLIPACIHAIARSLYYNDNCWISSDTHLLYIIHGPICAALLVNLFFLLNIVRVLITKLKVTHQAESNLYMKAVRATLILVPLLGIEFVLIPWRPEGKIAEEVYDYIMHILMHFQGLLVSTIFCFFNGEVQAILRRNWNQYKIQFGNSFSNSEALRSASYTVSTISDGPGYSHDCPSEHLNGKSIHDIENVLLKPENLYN

Experiments:
CLR-RAMP2 [1] = biological target: T1, CLR-RAMP2 (Homo sapiens, UniProt O60895+Q16602); experiment: cAMP accumulation at CLR-RAMP2; settings: HEK293T, 30 min, N.R. = no response or too small (pEC50 and Emax), n = 3
CLR-RAMP2 [2] = biological target: T1, CLR-RAMP2; experiment: β-arrestin2 recruitment to CLR-RAMP2 (BRET); settings: HEK293T, N.R. = no response or too small (pEC50 and Emax), n = 3
CLR-RAMP2 [3] = biological target: T1, CLR-RAMP2; experiment: β-arrestin1 recruitment to CLR-RAMP2 (BRET); settings: HEK293T, N.R. = no response or too small (pEC50 and Emax)

pEC50, cAMP accumulation (CLR-RAMP2 [1]; GRK3 overexpressed): N.R. | pEC50, cAMP accumulation (CLR-RAMP2 [1]; GRK4 overexpressed): N.R. | pEC50, cAMP accumulation (CLR-RAMP2 [1]; GRK6 overexpressed): N.R. | pEC50, β-arrestin2 recruitment (CLR-RAMP2 [2]; GRK5 overexpressed): N.R. | pEC50, β-arrestin2 recruitment (CLR-RAMP2 [2]; GRK6 overexpressed): N.R. | pEC50, β-arrestin1 recruitment (CLR-RAMP2 [3]; GRK5 overexpressed, n = 3): N.R. | pEC50, β-arrestin1 recruitment (CLR-RAMP2 [3]; GRK6 overexpressed, n = 4): N.R.
Compound: CSCC[C@H](NC(=O)[C@H](CC(C)C)NC(=O)[C@H](CCC(N)=O)NC(=O)[C@H](Cc1c[nH]c2ccccc12)NC(=O)[C@H](CC(C)C)NC(=O)[C@H](CCCNC(=N)N)NC(=O)[C@H](Cc1c[nH]cn1)NC(=O)[C@H](CO)NC(=O)[C@H](CC(C)C)NC(=O)[C@H](CC(N)=O)NC(=O)[C@H](CCC(N)=O)NC(=O)[C@@H](NC(=O)[C@H](CCC(N)=O)NC(=O)[C@@H]1CSSC[C@H](NC(=O)CNC(=O)[C@@H](NC(=O)[C@H](CCCNC(=N)N)NC(=O)[C@H](CC(C)C)NC(=O)[C@H](CC(C)C)NC(=O)[C@H](CCC(N)=O)NC(=O)[C@H](C)NC(=O)[C@H](CCC(N)=O)NC(=O)[C@@H](N)[C@@H](C)O)C(C)C)C(=O)N[C@@H](C(C)C)C(=O)N[C@@H](CC(C)C)C(=O)NCC(=O)N[C@@H]([C@@H](C)O)C(=O)N1)C(C)C)C(=O)NCC(=O)N1CCC[C@H]1C(=O)N[C@@H](C)C(=O)NCC(=O)N[C@@H](CCCNC(=N)N)C(=O)N[C@@H](CCC(N)=O)C(=O)N[C@@H](CC(=O)O)C(=O)N[C@@H](CO)C(=O)N[C@@H](C)C(=O)N1CCC[C@H]1C(=O)N[C@H](C(=O)N[C@@H](CC(=O)O)C(=O)N1CCC[C@H]1C(=O)N[C@@H](CO)C(=O)N[C@@H](CO)C(=O)N1CCC[C@H]1C(=O)N[C@@H](Cc1c[nH]cn1)C(=O)N[C@@H](CO)C(=O)N[C@@H](Cc1ccc(O)cc1)C(N)=O)C(C)C [AM2, adrenomedullin 2]
